# PubChem BioAssay AID1259318 (Sanford-Burnham Center for Chemical Genomics, 2017)
# Protein sequences, listed by entry. Tags and fused reporters are not part of them.
# UniProt P20393, whole entry, looked up: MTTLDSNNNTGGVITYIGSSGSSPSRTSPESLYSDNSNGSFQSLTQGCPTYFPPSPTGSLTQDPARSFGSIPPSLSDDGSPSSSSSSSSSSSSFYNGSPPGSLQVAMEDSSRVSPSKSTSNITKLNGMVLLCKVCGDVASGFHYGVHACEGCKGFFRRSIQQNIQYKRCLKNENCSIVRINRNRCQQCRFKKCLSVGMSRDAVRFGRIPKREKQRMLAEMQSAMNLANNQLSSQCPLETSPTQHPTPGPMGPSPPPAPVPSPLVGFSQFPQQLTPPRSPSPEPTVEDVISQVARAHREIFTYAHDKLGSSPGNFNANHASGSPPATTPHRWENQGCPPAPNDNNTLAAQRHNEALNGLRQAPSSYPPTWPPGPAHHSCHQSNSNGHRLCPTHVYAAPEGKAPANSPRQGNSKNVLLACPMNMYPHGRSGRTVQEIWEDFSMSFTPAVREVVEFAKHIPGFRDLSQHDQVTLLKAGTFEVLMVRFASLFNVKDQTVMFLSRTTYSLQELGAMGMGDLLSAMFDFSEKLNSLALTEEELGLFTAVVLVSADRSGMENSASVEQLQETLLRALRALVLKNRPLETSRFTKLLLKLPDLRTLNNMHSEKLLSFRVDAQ
# This is a selection; strong and weak results do not stand in their true shares. Some of these compounds have results that are not shown, active ones among them. The source made the active and inactive calls.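 The calls were made as follows: active = activity above about 14% (limit read from the data; passing the limit was not always enough); inactive = the rest.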
# Target: Nuclear receptor subfamily 1 group D member 1 (Homo sapiens) (UniProt P20393)
# Assay: modulators of Rev-erb alpha DNA binding, primary screen, biochemical, FITC-DNA, fluorescence polarization, uHTS (AID 1259318);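 also: 0% = DMSO wells with 35 nM protein and 100% = DMSO wells with 750 nM protein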
# Settings: Rev-erbα–FITC-DNA binding, 90 min, at 10 µM, hits give high values
row,SMILES,activity
1,CC(C)N1C(=O)CC2(CCN(CCOC(=O)C(O)(c3ccccc3)c3ccccc3)CC2)C1=O,inactive: -3.11%
2,COc1cc(SC)ccc1C(=O)NCC1(N(C)C)CCCCC1,inactive: -7.58%
3,CCN(CC)CC(C)C(C)OC(=O)C(O)(c1ccccc1)c1ccccc1 (stereo unspecified),inactive: -5.57%
4,Cc1ccc(C(=O)NCC2(N3CCCCC3)CCCCC2)cc1,inactive: 10.6%
5,O=C(NCC1(N2CCCCC2)CCCCC1)c1cc([N+](=O)[O-])ccc1Cl,inactive: -1.27%
6,CN1[C@@H]2CC[C@H]1CC(OC(=O)C(O)(c1ccccc1)c1ccccc1)C2 (stereo partly specified),inactive: 5.85%
7,O=C(NCC1(N2CCCCC2)CCCCC1)c1cc(F)c(F)cc1Cl,inactive: -4.27%
8,C=CCN1CCN(CCOC(=O)C(O)(c2ccccc2)c2ccccc2)CC1,inactive: 0.79%
9,O=C(NCC1(N2CCCCC2)CCCCC1)c1cccc(Br)c1,inactive: -3.81%
10,CCN1CCCC(OC(=O)C2(O)c3ccccc3C=Cc3ccccc32)C1 (stereo unspecified),inactive: -2.7%
11,Cc1cc(C(=O)NCC2(N3CCCCC3)CCCCC2)ccc1[N+](=O)[O-],inactive: -0.46%
12,COc1ccc(C(=O)NCC2(N(C)C)CCCCC2)cc1,inactive: -0.69%
13,CN(C)c1ccc(C(=O)NCC2(N(C)C)CCCCC2)cc1,inactive: 1.75%
14,CN(C)C1CCCC1OC(=O)C(O)(c1ccccc1)c1ccccc1 (stereo unspecified),inactive: -1.07%
15,Cc1ccccc1C(=O)NCC1(N2CCCCC2)CCCCC1,inactive: -1.86%
16,COc1ccc(Cl)cc1C(=O)NCC1(N(C)C)CCCCC1,inactive: 0.27%
17,COc1cccc(C(=O)NCC2(N3CCCCC3)CCCCC2)c1,inactive: -0.58%
18,O=C(NCC1(N2CCCCC2)CCCCC1)c1cccc(Cl)c1,inactive: 0.14%
19,CN(C)C1(CNC(=O)c2ccc(Br)cc2)CCCCC1,inactive: 6.37%
20,COc1cc(C(=O)NCC2(N(C)C)CCCCC2)c([N+](=O)[O-])cc1OC,inactive: 0.75%
21,COc1ccc(Br)c(C(=O)NCC2(N3CCCCC3)CCCCC2)c1,inactive: -1.95%
22,C=C(C)C#CC(O)(C(=O)OC1CCN(C)CC1)c1ccccc1 (stereo unspecified),inactive: -1.85%
23,CN(C)c1cccc(C(=O)NCC2(N(C)C)CCCCC2)c1,inactive: -5.37%
24,O=C(OCCN1CCCC1)C(O)(c1ccccc1)c1ccccc1,inactive: -9.21%
25,CC(C)Oc1ccc(C(=O)NCC2(N(C)C)CCCCC2)cc1,inactive: -4.72%
26,O=C(OC1CN2CCC1CC2)C(CO)(c1ccccc1)c1ccccc1 (stereo unspecified),inactive: 0.59%
